Legend:
[1] = molecular target: Hepatocyte growth factor receptor (Homo sapiens, UniProt P08581)
[2] = molecular target: Tyrosine-protein kinase Lck (Homo sapiens, UniProt P06239)
[3] = molecular target: cAMP-dependent protein kinase catalytic subunit alpha (Homo sapiens, UniProt P17612); assay: Inhibition of PKAalpha

Q: Which IC50 [1] does the source give for `COc1cc2nccc(Oc3ccc(NC(=O)c4c(C)n(C)n(-c5ccccc5)c4=O)cc3F)c2cc1OC` here?
A: 10 nM

Q: And the IC50 [2]?
A: 10 nM

Q: What about the IC50 [3] of the same compound?
A: 100000 nM
